From US4826975A, “Fused cycloaliphatic aminoalcohols” (Maggioni-Winthrop S.P.A., priority 1986, dated 1989) come the findings set out here.

In this test the test system is phenylephrine (PHE) induced hypertension. The experiment in a line: antagonism against phenylephrine (PHE) induced hypertension in anesthetized rats. The test is classed as in vivo, rat. The note with it: 1 mg/kg i.v.

As for `COc1cc2c(c(OC)c1OC)C[C@@H](N1CCC(n3c(=O)[nH]c4ccccc43)CC1)[C@H]2O` (relative stereo) [MG 38007, cis 2-[4-(2-Oxo-2-benzimidazolinyl)-1-piperidinyl]-4,5,6-trimethoxy-1-indanol], the “PHE dosis causing a 50 mm Hg increase of the arterial pressure, in comparison with the controls” value is “about 9 times”.
